Literature values in paper PMC8765435, “In Vitro Antimalarial Activity of Inhibitors of the Human GTPase Rac1” (Antimicrobial Agents and Chemotherapy, 2022).

Target: Rac1 (Homo sapiens, UniProt P63000)
Conditions: Rac1 activity in human smooth muscle cells; cited from earlier work

For `O=C(Nc1ccc(S(=O)(=O)N2CCCCC2)cc1)c1cc(-c2ccccc2O)n[nH]1`, the IC50 is listed as 8.7 µM.
